Results: patent US6056966A, “Method and compositions for treating impotence” (Baker Norton Pharmaceuticals, Inc., priority 1998, dated 2000)

Columns and labels:
[1] = tested on: guinea pig penis; test: Topical application of nitrates to the penis of guinea pigs (change in penile volume); assay type: in vivo, male outbred Hartley guinea pigs; settings: neat; for AUC / Peak Effect (% change): guinea pig penile volume; for AUC, % of 1,5-PDN / Peak Effect, % of 1,5-PDN: relative to 1,5-PDN
Source text: Sixteen (16) male outbred Hartley guinea pigs were weighed and placed into treatment groups as follows:
The animals were placed in dorsal recumbency and held in place by restraints. The penis was extruded from the prepuce. Care was taken to not manipulate the penis. Length and diameter measurements were made using digital calipers. The length measurement was taken from the prepuce to the tip of the glans when the penis was extended. The diameter was taken 0.5 cm proximally from the tip of the glans.
The appropriate amount of test material was applied with a Wiretrol™ pipette to the base of the exposed penis. When application was complete, a timer was started. Measurements were taken at 0, 1, 2, 5, 10 and 15 minutes after application or until detumescence was observed.
The same procedure was followed to topically apply a series of various other nitrate and dinitrate compounds (in neat form) to the penis of guinea pigs. A summary of the activity of this series of nitrate compounds is shown in Table 2, with the AUC and peak effect values for each compound compared to 1,5-PDN.
The same test procedure was followed as in Example 3, but applying a 10% solution of NTG to the penis in varying dosage amounts.
Twelve (12) male Hartley guinea pigs were placed into treatment groups as follows: […]

[2] = tested on: rat aortic rings; test: Vascular reactivity: relaxation of rat aortic rings precontracted with phenylephrine; assay type: cell-based, Sprague-Dawley rats; settings: FIG. 10, rat aortic rings
Source text: Aortic rings (2-3 mm wide) from Sprague-Dawley rats were isolated and placed in a tissue bath. The vessels were precontracted with small amounts of phenylephrine. A transducer connected to a recorder was used to assess changes in tension. As noted in FIG. 10, there was no difference in vascular relaxation, either in potency or efficacy, between 1,5-PDN and 1,5-pentane dinitrite.
In a similar experiment, there was no appreciable difference in the vascular relaxation induced by NTG and 1,5-PDN (FIG. 11).

[3] = tested on: penis; settings: topical; cited from earlier work

1-Pentane nitrate
Time of Peak Effect [1]: 2 min
AUC [1]: 234
Peak Effect (% change) [1]: 25.9 % change
AUC, % of 1,5-PDN [1]: 53%
Peak Effect, % of 1,5-PDN [1]: 67%

2-Methyl-1-propene-3-nitrate
Time of Peak Effect [1]: 5 min
AUC [1]: 265
Peak Effect (% change) [1]: 28.6 % change
AUC, % of 1,5-PDN [1]: 60%
Peak Effect, % of 1,5-PDN [1]: 74%

O=NOCCCCCON=O
vascular relaxation, potency or efficacy: 1,5-PDN vs 1,5-pentane dinitrite [2]: no difference in vascular relaxation, either in potency or efficacy
induction of erection [3]: effective in inducing erection
side effects [3]: almost devoid of undesirable side effects caused by systemic vasodilation

O=[N+]([O-])OCCCCCCO[N+](=O)[O-]
Time of Peak Effect [1]: 5 min
AUC [1]: 349
Peak Effect (% change) [1]: 31.8 % change
AUC, % of 1,5-PDN [1]: 79%
Peak Effect, % of 1,5-PDN [1]: 82%

CC(C)(C)CO[N+](=O)[O-]
Time of Peak Effect [1]: 2 min
AUC [1]: 376
Peak Effect (% change) [1]: 45.2 % change
